Chains of the proteins cited; added tags and fusions are not shown. Lines headed by an entry give the natural chain unless they say otherwise; changes in a name come on top.
UniProt P09884: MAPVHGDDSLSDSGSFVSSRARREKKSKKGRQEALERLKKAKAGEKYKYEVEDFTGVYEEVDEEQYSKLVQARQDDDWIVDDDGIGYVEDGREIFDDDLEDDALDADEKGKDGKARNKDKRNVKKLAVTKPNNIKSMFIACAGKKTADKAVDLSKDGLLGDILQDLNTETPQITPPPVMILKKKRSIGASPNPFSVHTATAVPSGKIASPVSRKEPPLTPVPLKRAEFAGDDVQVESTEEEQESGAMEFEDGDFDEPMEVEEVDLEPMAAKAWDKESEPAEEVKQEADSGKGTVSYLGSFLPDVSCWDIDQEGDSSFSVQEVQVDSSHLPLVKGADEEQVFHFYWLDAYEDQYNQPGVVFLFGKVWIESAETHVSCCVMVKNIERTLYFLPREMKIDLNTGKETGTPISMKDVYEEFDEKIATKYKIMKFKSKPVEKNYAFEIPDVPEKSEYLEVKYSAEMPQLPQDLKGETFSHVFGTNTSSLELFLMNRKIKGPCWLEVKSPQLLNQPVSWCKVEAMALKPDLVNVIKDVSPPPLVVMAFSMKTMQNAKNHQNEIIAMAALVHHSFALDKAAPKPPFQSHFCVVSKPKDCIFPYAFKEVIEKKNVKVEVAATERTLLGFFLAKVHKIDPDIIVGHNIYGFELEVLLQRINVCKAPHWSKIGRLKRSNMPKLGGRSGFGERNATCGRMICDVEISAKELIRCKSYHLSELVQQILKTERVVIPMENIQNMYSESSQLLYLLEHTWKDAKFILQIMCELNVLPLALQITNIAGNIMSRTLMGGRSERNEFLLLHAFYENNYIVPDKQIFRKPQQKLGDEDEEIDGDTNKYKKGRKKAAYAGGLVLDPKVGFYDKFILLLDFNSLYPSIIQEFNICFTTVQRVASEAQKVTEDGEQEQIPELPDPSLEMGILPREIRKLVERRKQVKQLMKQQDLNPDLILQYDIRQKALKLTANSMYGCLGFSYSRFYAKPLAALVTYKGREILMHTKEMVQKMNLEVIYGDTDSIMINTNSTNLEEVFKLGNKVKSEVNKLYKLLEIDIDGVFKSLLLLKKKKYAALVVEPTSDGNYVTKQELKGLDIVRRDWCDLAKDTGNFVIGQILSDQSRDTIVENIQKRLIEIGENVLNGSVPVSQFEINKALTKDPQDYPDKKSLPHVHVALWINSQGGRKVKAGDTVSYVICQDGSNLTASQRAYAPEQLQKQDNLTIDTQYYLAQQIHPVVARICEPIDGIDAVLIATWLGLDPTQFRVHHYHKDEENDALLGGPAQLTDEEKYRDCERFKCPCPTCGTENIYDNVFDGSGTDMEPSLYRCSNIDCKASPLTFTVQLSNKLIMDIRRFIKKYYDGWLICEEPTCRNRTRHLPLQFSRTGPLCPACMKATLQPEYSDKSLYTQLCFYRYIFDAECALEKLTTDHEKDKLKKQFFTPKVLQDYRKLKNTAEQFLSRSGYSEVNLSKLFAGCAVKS

In patent EP1296995B1, “3'-PRODRUGS OF 2'-DEOXY-BETA-L-NUCLEOSIDES” (priority 2000, dated 2001):

Tests used:
human DNA polymerase α [1] = target: T1, human DNA polymerase α (Homo sapiens, UniProt P09884)
human DNA polymerase α [2] = target: T1, human DNA polymerase α; assay: biochemical; settings: read-out: inhibition of human DNA polymerase α

SMILES: Nc1ncnc2c1ncn2[C@@H]1CC[C@H](COP(=O)(O)OP(=O)(O)OP(=O)(O)O)O1 [L-ddA-TP, reference compound]
- IC50 (human DNA polymerase α [1]; read-out: IC50 Human DNA pol α): > 100 µM

SMILES: Nc1ccn([C@@H]2C[C@@H](O)[C@H](COP(=O)(O)OP(=O)(O)OP(=O)(O)O)O2)c(=O)n1 [L-dC-TP]
- inhibition of human DNA polymerase α (human DNA polymerase α [1]; up to concentrations of 100 µM, the highest concentration tested, listed as triphosphate form of L-dC): not inhibitory

SMILES: Cc1cn([C@H]2C[C@H](N)[C@@H](COP(=O)(O)OP(=O)(O)OP(=O)(O)O)O2)c(=O)[nH]c1=O [3'-amino-3'-deoxythymidine (AMT) TP]
- inhibition at 10 µM (human DNA polymerase α [2]): 30%
